Reference: patent US20190263796A1, “LIM KINASE INHIBITORS, PHARMACEUTICAL COMPOSITION AND METHOD OF USE IN LIMK-MEDIATED DISEASES” (CELLIPSE, priority 2016, published 2019)

The chains behind the UniProt entries cited, without tags or fusion partners.
UniProt P15056, whole entry: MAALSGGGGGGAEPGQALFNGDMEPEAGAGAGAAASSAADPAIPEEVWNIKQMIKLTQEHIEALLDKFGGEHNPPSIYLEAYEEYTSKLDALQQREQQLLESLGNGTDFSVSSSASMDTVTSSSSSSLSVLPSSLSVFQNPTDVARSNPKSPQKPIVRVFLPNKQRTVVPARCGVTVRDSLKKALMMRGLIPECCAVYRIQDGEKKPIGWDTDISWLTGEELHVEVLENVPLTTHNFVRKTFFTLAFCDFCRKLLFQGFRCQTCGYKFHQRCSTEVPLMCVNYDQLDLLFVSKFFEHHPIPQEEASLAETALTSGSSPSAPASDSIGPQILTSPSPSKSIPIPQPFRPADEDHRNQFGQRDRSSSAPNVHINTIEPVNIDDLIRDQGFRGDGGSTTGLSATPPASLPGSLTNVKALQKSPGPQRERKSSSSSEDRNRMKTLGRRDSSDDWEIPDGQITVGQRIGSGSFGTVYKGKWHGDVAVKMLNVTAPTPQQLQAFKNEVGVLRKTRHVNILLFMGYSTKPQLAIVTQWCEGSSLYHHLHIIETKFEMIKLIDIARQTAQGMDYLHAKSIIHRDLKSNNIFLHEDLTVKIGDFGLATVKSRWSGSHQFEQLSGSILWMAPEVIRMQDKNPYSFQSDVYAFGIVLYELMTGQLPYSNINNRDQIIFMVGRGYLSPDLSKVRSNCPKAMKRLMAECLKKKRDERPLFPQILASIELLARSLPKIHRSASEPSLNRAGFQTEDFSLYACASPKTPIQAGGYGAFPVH

How the values were obtained:
[1] = tested on: P-MEK/Total MEK; assay: Western blot MEK1 phosphorylation, MOLM-14; assay type: cell-based; details: MOLM-14 cells; IC50 P-MEK/Total MEK divided by IC50 Phospho-Ser3-Cofilin/Total Cofilin
Experimental: MOLM-14 cell line was originally purchased from the American Type Culture Collection (ATCC). MOLM-14 cells are cultured in MEM alpha 10% (v/v) FBS supplemented with 100 U/mL^−1 penicillin, 0.1 mg·mL^−1 streptomycin (PAN Biotech P06-07100). Cells were maintained at 37° C. with 5% CO2.
(§1) In a 6 wells plate (Falcon 353046), 2·10^6 cells in 1.5 mL medium are treated for 2 h with compounds. Cells are then collected and cell lysis is performed at 4° C. using RIPA buffer supplemented with protease inhibitors cocktail (Sigma-Aldrich P8340) and phosphatase inhibitors cocktail (Sigma-Aldrich P5726). Following centrifugation 30 min 15000 g 4° C., supernatants are mixed with Laemmli buffer and denaturation is performed by heating 5 min 95° C. 10 μL of samples are subjected to electrophoresis on 15% SDS-PAGE. […] For each concentration of compound, ratio between phosphorylated cofilin and total cofilin is determined. This ratio is then expressed as percentage of control ratio (i.e., ratio from DMSO treated cells). IC50 P-MEK/Total MEK is then determined.
(§2) Selectivity ratios are calculated by dividing the IC50 P-MEK/Total MEK value (μM) by the IC50 Phospho-Ser3-Cofilin/Total Cofilin value (μM).

[2] = tested on: P-MEK/Total MEK; assay: Western blot MEK1 phosphorylation, HL-60; assay type: cell-based; details: HL-60 cells; IC50 P-MEK/Total MEK divided by IC50 Phospho-Ser3-Cofilin/Total Cofilin
Experimental: (§3) HL-60 cell line was originally purchased from the Leibniz-Institut Deutsche Sammlung von Mikroorganismen und Zellkulturen GmbH (DSMZ). HL-60 cells are cultured in RPMI 1640 10% (v/v) FBS supplemented with 100 U/mL^−1 penicillin, 0.1 mg·mL^−1 streptomycin (PAN Biotech P06-07100). Cells were maintained at 37° C. with 5% CO2.
as §1, §2

[3] = tested on: P-MEK/Total MEK; assay: Western blot MEK1 phosphorylation, Kasumi-1; assay type: cell-based; details: Kasumi-1 cells; IC50 P-MEK/Total MEK divided by IC50 Phospho-Ser3-Cofilin/Total Cofilin
Experimental: Kasumi-1 cell line was originally purchased from the American Type Culture Collection (ATCC). Kasumi-1 cells are cultured in RPMI 1640 20% (v/v) FBS supplemented with 100 U/mL^−1 penicillin, 0.1 mg·mL^−1 streptomycin (PAN Biotech P06-07100). Cells were maintained at 37° C. with 5% CO2.
as §1, §2

[4] = tested on: P-MEK/Total MEK; assay: Western blot MEK1 phosphorylation, MOLM-13; assay type: cell-based; details: MOLM-13 cells; IC50 P-MEK/Total MEK divided by IC50 Phospho-Ser3-Cofilin/Total Cofilin
Experimental: as §3, with “MOLM-13” for “HL-60”, “20%” for “10%”
as §1, §2

[5] = target: B-Raf(h) (Homo sapiens, UniProt P15056); assay: B-Raf kinase assay (Eurofins Panlabs, radiometric); assay type: biochemical; design: purchased Eurofins Panlabs Inc. (contract assay service); details: IC50 B-Raf (nM) divided by IC50 LIMK1 (nM); Table 8
Experimental: IC50 B-Raf is then determined.
Selectivity ratios are calculated by dividing the IC50 B-Raf (nM) by the IC50 LIMK1 (nM).

[6] = tested on: P-MEK/Total MEK; assay: Western blot MEK1 phosphorylation, MV4-11; assay type: cell-based; details: MV4-11 cells; IC50 P-MEK/Total MEK divided by IC50 Phospho-Ser3-Cofilin/Total Cofilin
Experimental: as §3, with “MV4-11” for “HL-60”, “purchased from the American Type Culture Collection (ATCC) or” for “purchased”, “20%” for “10%”, “P06-07100) and 2 mM Glutamine (Sigma-Aldrich 59202C).” for “P06-07100).”
as §1, §2

[7] = tested on: P-MEK/Total MEK; assay: Western blot MEK1 phosphorylation, K-562; assay type: cell-based; details: K562 cells; IC50 P-MEK/Total MEK divided by IC50 Phospho-Ser3-Cofilin/Total Cofilin
Experimental: as §3, with “K-562” for “HL-60”
as §1, §2

[8] = tested on: P-MEK/Total MEK; assay: Western blot MEK1 phosphorylation, THP-1; assay type: cell-based; details: THP-1 cells; IC50 P-MEK/Total MEK divided by IC50 Phospho-Ser3-Cofilin/Total Cofilin
Experimental: as §3, with “THP-1” for “HL-60”, “20%” for “10%”
as §1, §2

Compound	Selectivity ratio [1]	Selectivity ratio [2]	Selectivity ratio [3]	Selectivity ratio [4]	Selectivity ratio [5]	Selectivity ratio [6]	Selectivity ratio [7]	Selectivity ratio [8]
CNC(=O)Cc1nc(-c2cccc(NS(=O)(=O)c3c(F)cccc3F)c2F)c(-c2ccnc(Nc3ccccc3)n2)s1 [9 (Na)]	90	15	25	42	15	–	–	–
CNC(=O)Cc1nc(-c2cccc(NS(=O)(=O)c3c(F)cccc3F)c2F)c(-c2ccnc(Nc3ccccc3)n2)s1 [Compound 9, 2-(4-(3-(2,6-difluorophenylsulfonamido)-2-fluorophenyl)-5-(2-(phenylamino)pyrimidin-4-yl)thiazol-2-yl)-N-methylacetamide]	125	–	–	125	20	3	7	8
